# scFv variants of Ab-14 (light chain) against a SARS-CoV-2 spike peptide

Data: MIT Lincoln Laboratory AlphaSeq set, Li et al. 2023, doi:10.1038/s41467-023-39022-2, as distributed in FLAb.

The target is the same throughout: PDVDLGDISGINAS, from the HR2 region of SARS-CoV-2 spike.

Parent scFv Ab-14: VH joined to VL by a (GGGGS)3 linker. Changes lie in the light chain CDRs alone.
VH: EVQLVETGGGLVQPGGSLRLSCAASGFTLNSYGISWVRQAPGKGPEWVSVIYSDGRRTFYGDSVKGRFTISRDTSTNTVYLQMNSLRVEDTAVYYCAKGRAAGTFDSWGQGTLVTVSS
VL: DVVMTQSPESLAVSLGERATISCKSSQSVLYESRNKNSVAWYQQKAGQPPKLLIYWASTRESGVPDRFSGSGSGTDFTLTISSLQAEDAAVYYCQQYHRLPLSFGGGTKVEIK

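The variants were designed computationally from a first round of random CDR variants and then made and measured. Group labels follow the data file (Ctrl: baseline library sampled from a position-specific scoring matrix, with some repeated check sequences; GP: Gaussian process model; Gen: genetic algorithm; a sequence that several methods proposed may carry one label only). Affinity was read by AlphaSeq, a pooled yeast mating assay with surface-displayed partners. Mating (16 h, 30 °C) was followed by selection of diploids and sequencing of their barcodes. Scores were corrected for input abundance and mapped to Kd with protein pairs of known affinity run in the same pool. There are six technical replicates.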

Changes read parent residue, position, new residue, counted from the first residue of the VL shown. Scale: log10 of Kd in nM, estimated from mating counts; low values are strong binders. An entry "ND" has no value in the source: the pair was not observed among the diploids in that replicate. This suggests poor binding but is not conclusive. Three control strains display no target. For all light chain designs, 4% of the pairings with them gave a signal, with a median of 2.64 and one signal in twenty below 1.59, so weak values seen in few replicates may be background. The control count says in how many pairings with the empty strains this scFv gave a signal, with their mean in brackets. The range of this assay differs from that of the first round, and the authors advise against merging the two. Of ten entries with the parent sequence, four were seen in most replicates (averages 0.34 to 2.37), three in one and three in none, so single entries are noisy. Some sequences occur more than once in the pool; their replicates are listed entry by entry, parted by semicolons. The authors' rule: three or more of the six replicates give a measured affinity, fewer mean a poor binder.

{"changes": "W56Y/Q96V/S103E", "group": "Ctrl", "replicates, log10 nM": "ND ND ND ND ND ND", "control signals": "0/18"}
{"changes": "S28P/Y31I", "group": "Ctrl", "replicates, log10 nM": "1.73 2.12 ND 2.10 2.30 2.27", "control signals": "0/18"}
{"changes": "S25M/Y31H/E32G/S33W/S58T", "group": "Ctrl", "replicates, log10 nM": "ND 2.73 ND 2.83 3.74 2.95", "control signals": "2/18 (2.53)"}
{"changes": "V29A/R34Q/A57D/T59W/R60L/E61N/Y97H", "group": "Ctrl", "replicates, log10 nM": "ND ND ND ND ND ND", "control signals": "1/18 (1.74)"}
{"changes": "Y31L/T59N/Q95Y", "group": "Ctrl", "replicates, log10 nM": "ND ND ND ND ND ND", "control signals": "1/18 (2.45)"}
{"changes": "R34E/W56G/Q96S", "group": "Ctrl", "replicates, log10 nM": "0.76 0.66 0.24 0.08 0.41 0.54", "control signals": "1/18 (2.55)"}
{"changes": "S26P/N35D/N37Y/S38N/W56Q/E61S", "group": "Ctrl", "replicates, log10 nM": "0.81 0.58 0.77 0.97 0.70 0.97", "control signals": "1/18 (2.64)"}
{"changes": "V29I/L30F/Y31N/S33L/W56K/Q96E", "group": "Ctrl", "replicates, log10 nM": "1.16 1.00 0.64 0.56 0.98 0.92", "control signals": "0/18"}
{"changes": "L100H/L102S", "group": "Ctrl", "replicates, log10 nM": "ND ND ND ND ND ND", "control signals": "0/18"}
{"changes": "S28L/R34S/K36T/W56S/Y97C/H98S", "group": "Ctrl", "replicates, log10 nM": "1.04 0.97 0.66 1.11 0.65 0.87", "control signals": "1/18 (2.19)"}
{"changes": "S28N/E32T/R34T/W56D/T59V", "group": "Ctrl", "replicates, log10 nM": "0.31 0.25 0.20 0.28 0.18 0.25", "control signals": "2/18 (2.75)"}
{"changes": "S25Y/Q27P/L30W", "group": "Ctrl", "replicates, log10 nM": "1.39 1.83 2.73 1.85 ND 1.41", "control signals": "0/18"}
{"changes": "R34D/S58R/L100M", "group": "Ctrl", "replicates, log10 nM": "ND ND ND ND 3.64 ND", "control signals": "0/18"}
{"changes": "S26Q/R34G/V39I/W56D/S58M", "group": "Ctrl", "replicates, log10 nM": "0.16 0.10 -0.03 0.04 -0.15 0.75", "control signals": "0/18"}
{"changes": "K36L/W56E", "group": "Ctrl", "replicates, log10 nM": "1.22 0.83 1.02 1.16 0.78 1.16", "control signals": "4/18 (2.54)"}
{"changes": "R34E/S62D", "group": "Ctrl", "replicates, log10 nM": "1.49 1.68 1.28 1.13 1.28 1.25", "control signals": "1/18 (2.61)"}
{"changes": "S25L/Y31M/W56Q", "group": "Ctrl+GP_Gen", "replicates, log10 nM": "-0.15 -0.19 -0.42 -0.39 -0.29 -0.10; -0.07 -0.12 -0.24 -0.27 -0.25 -0.14", "control signals": "1/36 (2.71)"}
{"changes": "S25C/Y31F/S33D/N35Y/W56Q/T59Q/P101R", "group": "Ctrl", "replicates, log10 nM": "ND ND ND ND ND ND", "control signals": "0/18"}
{"changes": "Y31E/S38N", "group": "Ctrl", "replicates, log10 nM": "ND ND 3.00 1.35 1.49 1.94", "control signals": "1/18 (3.11)"}
{"changes": "S25L/L30T/E32N/N35D", "group": "Ctrl", "replicates, log10 nM": "ND 2.60 ND ND 2.40 ND", "control signals": "2/18 (2.77)"}
{"changes": "L30E/K36V/Q95D", "group": "Ctrl", "replicates, log10 nM": "ND ND ND ND ND ND", "control signals": "0/18"}
{"changes": "Y31A/R34F/W56G/S62A/Q95N", "group": "Ctrl", "replicates, log10 nM": "ND ND ND ND ND ND", "control signals": "0/18"}

The 2 strongest on average among those seen in every replicate, once more:

changes	group	replicates, log10 nM	control signals
S25L/Y31M/W56Q	Ctrl+GP_Gen	-0.15 -0.19 -0.42 -0.39 -0.29 -0.10; -0.07 -0.12 -0.24 -0.27 -0.25 -0.14	1/36 (2.71)
S26Q/R34G/V39I/W56D/S58M	Ctrl	0.16 0.10 -0.03 0.04 -0.15 0.75	0/18